Reference: publication PMC4673902 (Journal of medicinal chemistry, 2012)

By UniProt entry, the sequences of proteins in these tests, tags left out. Where a name states a change or a piece, a line headed by the entry shows the natural chain unless it says otherwise.
UniProt Q9UPP1: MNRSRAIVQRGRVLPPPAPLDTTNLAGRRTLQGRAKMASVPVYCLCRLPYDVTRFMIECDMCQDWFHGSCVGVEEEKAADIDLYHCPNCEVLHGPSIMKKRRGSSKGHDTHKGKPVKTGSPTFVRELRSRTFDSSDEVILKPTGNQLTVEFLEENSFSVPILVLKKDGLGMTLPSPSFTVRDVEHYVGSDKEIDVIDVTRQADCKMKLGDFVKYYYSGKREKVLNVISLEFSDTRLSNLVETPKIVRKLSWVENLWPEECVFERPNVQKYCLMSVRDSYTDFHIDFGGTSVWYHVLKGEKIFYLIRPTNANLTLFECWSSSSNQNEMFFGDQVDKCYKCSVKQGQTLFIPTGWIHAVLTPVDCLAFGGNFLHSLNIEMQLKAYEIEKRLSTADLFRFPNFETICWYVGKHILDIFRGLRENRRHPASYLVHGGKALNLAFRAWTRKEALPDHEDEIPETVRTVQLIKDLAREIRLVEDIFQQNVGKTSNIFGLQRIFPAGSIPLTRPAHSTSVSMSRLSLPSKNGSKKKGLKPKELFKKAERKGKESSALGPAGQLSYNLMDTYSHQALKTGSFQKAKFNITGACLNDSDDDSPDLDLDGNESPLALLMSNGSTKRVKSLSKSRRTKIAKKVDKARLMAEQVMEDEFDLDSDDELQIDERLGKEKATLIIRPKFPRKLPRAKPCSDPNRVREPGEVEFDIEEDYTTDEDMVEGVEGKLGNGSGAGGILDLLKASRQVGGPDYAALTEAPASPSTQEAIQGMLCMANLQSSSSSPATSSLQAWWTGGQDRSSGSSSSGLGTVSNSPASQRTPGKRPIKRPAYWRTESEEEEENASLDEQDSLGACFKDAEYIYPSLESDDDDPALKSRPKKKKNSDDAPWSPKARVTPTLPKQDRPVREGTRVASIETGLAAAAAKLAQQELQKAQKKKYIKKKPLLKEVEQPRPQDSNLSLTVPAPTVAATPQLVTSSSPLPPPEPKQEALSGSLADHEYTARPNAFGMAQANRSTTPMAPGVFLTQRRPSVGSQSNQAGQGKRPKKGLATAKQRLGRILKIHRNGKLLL

Biological target: PHF8 (Homo sapiens, UniProt Q9UPP1)
Experiment: AlphaScreen demethylase activity assay, PHF8
Type: biochemical

`CN(C)NC(=O)CCC(=O)O` [Daminozide, N-(dimethylamino)succinamic acid] showed an IC50 of at most 2000 nM.
